Source: patent US11992488B2, “Vasoconstriction compositions and methods of use” (Eye Therapies, LLC, priority 2008, dated 2024)
Where two headings read alike, the source gives them in different places.

Key:
[1] = system: patient with an ocular condition; details: brimonidine at 0.033%, left eye only, 4 hrs after FIG. 4D
[2] = system: patient with nasal congestion; details: 0.03% Brimonidine nasal spray, repeated for one week, n of 1
under-responders = details: of 100 Subjects (under-responders)
[3] = system: over-responders wearing contact lenses; details: 0.008% brimonidine while wearing contact lenses, of 100 Subjects (over-responders)
over-responders = details: contact lenses soaked in 0.008% brimonidine, of 100 Subjects (over-responders)
[4] = system: patients having a red eye condition; test: Example 4: red eye study, cumulative red scores; details: brimonidine at 0.05% (1 of 15)
[5] = system: Lasik patients (Intralase femtosecond laser); test: Example 2: Lasik prophylaxis (postoperative hyperemia, hemorrhage, flap dislocation)
[6] = 0.037% brimonidine after wash-out
[7] = Brimonidine 0.02%, Treatment Group 3

Brc1c(N=C2NCCN2)ccc2nccnc12.O=C(O)C(O)C(O)C(=O)O [brimonidine, 5-bromo-6-(2-imidazolidinylideneamino) quinoxaline L-tartrate]
rebound hyperemia after third application [1]: without rebound hyperemia | rebound on repeated use [2]: without rebound | Other side effects (under-responders; [6]): 1 | Side Effects: Eye ache/strain (under-responders; [6]): 1 | Side Effects: Eye dryness (under-responders; [6]): 1 | Side Effects: Eye irritation (under-responders; [6]): 1 | Side Effects: Rebound (under-responders; [6]): 0 | Other side effects (under-responders; […] brimonidine): 00 | Side Effects: Eye ache/strain (under-responders; […] brimonidine): 0 | Side Effects: Eye dryness (under-responders; […] brimonidine): 0 | Side Effects: Eye irritation (under-responders; […] brimonidine): 0 | Side Effects: Rebound (under-responders; […] brimonidine): 0 | Other side effects [3]: 1 | Side Effects: Eye ache/strain [3]: 1 | Side Effects: Eye dryness [3]: 1 | Side Effects: Eye irritation [3]: 1 | Side Effects: Rebound [3]: 0 | Other side effects (over-responders): 1 | Side Effects: Eye ache/strain (over-responders): 1 | Side Effects: Eye dryness (over-responders): 1 | Side Effects: Eye irritation (over-responders): 1 | Side Effects: Rebound (over-responders): 0 | Rebound hyperemia after one dose [4]: 6.6% | flap dislocation rate ([5]; Brimonidine 0.02% topically, 10-20 minutes preoperatively, initial trial): under 1% | adverse cardiovascular events [5, 7]: No adverse cardiovascular events occurred | allergic reactions [5, 7]: No significant allergic reactions have been found | flap dislocation rate ([5]; Brimonidine 0.02%, group expanded to over 500 eyes, most mild striae): under 1%
